Reference: ChEMBL document CHEMBL1142724, “Identification and biological evaluation of 4-(3-trifluoromethylpyridin-2-yl)piperazine-1-carboxylic acid (5-trifluoromethylpyridin-2-yl)amide, a high affinity TRPV1 (VR1) vanilloid receptor antagonist” (J Med Chem, 2005)
Where “and” joins values, the source holds several entries; their conditions need not be identical. Identical values can stand only once.

Protein sequences, listed by entry. Tags and fused reporters are not part of them.
UniProt Q8NER1, whole entry: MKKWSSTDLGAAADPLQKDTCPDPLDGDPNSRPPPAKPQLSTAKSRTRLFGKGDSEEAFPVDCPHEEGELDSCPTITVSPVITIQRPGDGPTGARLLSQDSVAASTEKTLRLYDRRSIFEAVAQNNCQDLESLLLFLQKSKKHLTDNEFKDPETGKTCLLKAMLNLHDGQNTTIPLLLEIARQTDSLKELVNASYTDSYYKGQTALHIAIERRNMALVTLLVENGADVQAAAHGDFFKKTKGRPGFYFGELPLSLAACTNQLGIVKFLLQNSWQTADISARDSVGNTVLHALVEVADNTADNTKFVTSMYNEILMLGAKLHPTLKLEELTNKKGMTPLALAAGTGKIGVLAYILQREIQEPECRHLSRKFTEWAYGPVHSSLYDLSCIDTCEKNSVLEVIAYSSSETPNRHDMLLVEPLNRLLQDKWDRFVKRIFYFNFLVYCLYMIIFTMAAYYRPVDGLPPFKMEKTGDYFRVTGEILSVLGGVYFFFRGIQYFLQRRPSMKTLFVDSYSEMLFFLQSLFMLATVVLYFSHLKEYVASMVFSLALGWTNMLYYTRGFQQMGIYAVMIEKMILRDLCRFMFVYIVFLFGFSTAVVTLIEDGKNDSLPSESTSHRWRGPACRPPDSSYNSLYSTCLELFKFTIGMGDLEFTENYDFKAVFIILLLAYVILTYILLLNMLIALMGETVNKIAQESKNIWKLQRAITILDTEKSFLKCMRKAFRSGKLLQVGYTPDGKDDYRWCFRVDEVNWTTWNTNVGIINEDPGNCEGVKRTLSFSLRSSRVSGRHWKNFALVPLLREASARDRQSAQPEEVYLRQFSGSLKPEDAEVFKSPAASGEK

Experiments:
[1] = target: T1, Transient receptor potential cation channel subfamily V member 1 (Homo sapiens, UniProt Q8NER1); assay: Inhibition of human transient receptor potential vanilloid 1 receptor (n=3)
Procedure, shortened: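 FLIPR Ca2+ influx in Fluo-3-loaded HEK293 cells stably expressing human or rat TRPV1. Compound was added at 0.3 nM–30 µM final, in half-log steps, for 3 min before capsaicin. Signal was the smaller of peak and end fluorescence after basal subtraction. IC50 came from a four-parameter logistic fit.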

[2] = target: T1, Transient receptor potential cation channel subfamily V member 1; assay: Inhibition of human transient receptor potential vanilloid 1 receptor (n=13)
[3] = target: T1, Transient receptor potential cation channel subfamily V member 1; assay: In vitro inhibition of anandamide activated human TRPV1 receptor in [Ca2+] influx assay
[4] = target: T1, Transient receptor potential cation channel subfamily V member 1; assay: Displacement of [3H]resiniferatoxin from human Transient receptor potential vanilloid 1 receptor; (n=2)
[5] = target: T1, Transient receptor potential cation channel subfamily V member 1; assay: In vitro inhibition of PMA-activated human TRPV1 receptor in [Ca2+] influx assay
Procedure, shortened: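 Human TRPV1-HEK293 cells were loaded with Fluo-3 and preincubated with compound for 3 min. They were then stimulated with 300 nM PMA, and fluorescence was monitored for 5–10 min on FLIPR. IC50 came from a four-parameter logistic fit.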

IC50 [1] | Compound | IC50 [2] | IC50 [3] | Ki [4] | IC50 [5]
5030 nM | O=C(Nc1ccc(C(F)(F)F)cc1)NC1CCN(c2ncccc2C(F)(F)F)CC1 |  |  |  | 
 | O=C(Nc1ccc(C(F)(F)F)cc1)N1CCN(c2ncccc2C(F)(F)F)CC1 | 57 nM | 3 nM and 5 nM and 4 nM | 38 nM | 3 nM
